System: 4T1 tumor-bearing mice
Experiment: Biodistribution of ^111In-FAP8-PEG3-IP-DOTA in 4T1 tumor-bearing mice
Text: Balb/c mice were inoculated on their shoulders with 1×10^5 cells of 4T1 cells, whereas nu/nu mice were inoculated on their shoulders with 5×10^6 cells of HT29 (a human colorectal adenocarcinoma cell line), KB (tumor cell line HeLa), MDA-MB-231 (a human breast cancer cell line), or HEK-FAP cells.
For the first study, two different tumor-bearing mice (4T1 and HEK-hFAP) were intravenously injected with [^111In] In-FAP8-PEG3-IP-DOTA (In-Conjugate 24′) (0.74 MBq/mouse, 1-10 nmol/mouse) or [^177Lu] Lu-FAP8-PEG3-IP-DOTA (Lu-Conjugate 24′) (7.4 MBq/mouse, 0.3 nmol-5 nmol/mouse).
At indicated time points (1 hour, 4 hours, 24 hours, 72 hours, 120 hours, and 168 hours post-injection), mice were assessed and/or euthanized by CO2 asphyxiation and organs of interest were harvested, excess blood was rinsed, dried, weighed, and then analyzed by gamma counter, and the results were decay corrected and presented as the percentage of the injected dose per gram of tissue (% ID/g)±standard deviation (SD).
Dose escalation analyses of [^111In] In-FAP8-PEG3-IP-DOTA (In-Conjugate 24′) in 4T1 tumor-bearing mice was performed (n=3) with 1.0 nmol/mouse. 2.5 nmol/mouse, 5.0 nmol/mouse, or 10.0 nmol/mouse doses of Conjugate 24′ provided with constant radioactivity (0.74 MBq/mouse) and measured at three different times (4 hours, 24 hours, and 120 hours post-injection).

## COc1ccc(CNC(=O)C(=O)[C@@H]2CC(F)(F)CN2C(=O)CNC(=O)c2ccnc3ccc(OCC(=O)NCCOCCOCCOCCNC(=O)[C@H](CCCCNC(=O)CCCc4ccc(I)cc4)NC(=O)CN4CCN(CC(=O)O)CCN(CC(=O)O)CCN(CC(=O)O)CC4)cc23)cc1OC.[In+3]
1 nmol/mouse, 4 h
  Blood uptake: 26.37 ± 5.78 % ID/g
  Bone marrow uptake: 2 ± 1.18 % ID/g
  Heart uptake: 1.51 ± 0.38 % ID/g
  Intestine uptake: 1.86 ± 1.30 % ID/g
  Kidneys uptake: 4.42 ± 0.44 % ID/g
  Liver uptake: 3.86 ± 0.405 % ID/g
  Lungs uptake: 3.50 ± 0.69 % ID/g
  Spleen uptake: 0.96 ± 0.02 % ID/g
  Stomach uptake: 1.49 ± 0.251 % ID/g
  Tumor uptake: 8.51 ± 2.63 % ID/g
  Tumor/Blood: 0.67 ± 0.37
  Tumor/Bone marrow: 4.96 ± 1.62
  Tumor/Kidneys: 2.62 ± 0.57
1 nmol/mouse, 24 h
  Blood uptake: 8.39 ± 3.60 % ID/g
  Bone marrow uptake: 0.48 ± 0.38 % ID/g
  Heart uptake: 2.78 ± 1.49 % ID/g
  Intestine uptake: 1.54 ± 1.22 % ID/g
  Kidneys uptake: 3.53 ± 1.61 % ID/g
  Liver uptake: 2.60 ± 0.49 % ID/g
  Lungs uptake: 2.18 ± 0.83 % ID/g
  Spleen uptake: 1.97 ± 1.18 % ID/g
  Stomach uptake: 0.88 ± 0.511 % ID/g
  Tumor uptake: 11.14 ± 1.63 % ID/g
  Tumor/Blood: 1.24 ± 0.90
  Tumor/Bone marrow: 30.91 ± 33.28
  Tumor/Kidneys: 3.34 ± 1.12
1 nmol/mouse, 120 h
  Blood uptake: 1.18 ± 0.17 % ID/g
  Bone marrow uptake: 0.53 ± 0.54 % ID/g
  Heart uptake: 0.64 ± 0.12 % ID/g
  Intestine uptake: 1.72 ± 2.09 % ID/g
  Kidneys uptake: 1.47 ± 0.63 % ID/g
  Liver uptake: 3.94 ± 0.29 % ID/g
  Lungs uptake: 0.63 ± 0.118 % ID/g
  Spleen uptake: 1.32 ± 0.19 % ID/g
  Stomach uptake: 0.57 ± 0.18 % ID/g
  Tumor uptake: 14.9 ± 4.38 % ID/g
  Tumor/Blood: 12.47 ± 1.50
  Tumor/Bone marrow: 43.72 ± 18.90
  Tumor/Kidneys: 11.67 ± 5.05
2.5 nmol/mouse, 4 h
  Blood uptake: 40.25 ± 6.03 % ID/g
  Bone marrow uptake: 2.01 ± 1.41 % ID/g
  Heart uptake: 3.55 ± 0.75 % ID/g
  Intestine uptake: 3.13 ± 1.25 % ID/g
  Kidneys uptake: 10.07 ± 4.88 % ID/g
  Liver uptake: 5.43 ± 0.702 % ID/g
  Lungs uptake: 11.42 ± 4.95 % ID/g
  Spleen uptake: 1.70 ± 1.06 % ID/g
  Stomach uptake: 1.40 ± 0.359 % ID/g
  Tumor uptake: 11.38 ± 3.80 % ID/g
  Tumor/Blood: 0.89 ± 0.85
  Tumor/Bone marrow: 4.16 ± 2.52
  Tumor/Kidneys: 1.17 ± 0.19
2.5 nmol/mouse, 24 h
  Blood uptake: 7.19 ± 5.02 % ID/g
  Bone marrow uptake: 1.68 ± 1.036 % ID/g
  Heart uptake: 2.35 ± 1.84 % ID/g
  Intestine uptake: 1.57 ± 0.72 % ID/g
  Kidneys uptake: 8.90 ± 3.91 % ID/g
  Liver uptake: 3.83 ± 1.41 % ID/g
  Lungs uptake: 1.98 ± 0.809 % ID/g
  Spleen uptake: 2.19 ± 0.80 % ID/g
  Stomach uptake: 0.88 ± 0.22 % ID/g
  Tumor uptake: 9.92 ± 4.51 % ID/g
  Tumor/Blood: 1.61 ± 0.50
  Tumor/Bone marrow: 10.23 ± 8.23
  Tumor/Kidneys: 1.17 ± 0.19
2.5 nmol/mouse, 120 h
  Blood uptake: 0.75 ± 0.34 % ID/g
  Bone marrow uptake: 0.75 ± 0.49 % ID/g
  Heart uptake: 0.77 ± 0.42 % ID/g
  Intestine uptake: 0.96 ± 0.78 % ID/g
  Kidneys uptake: 3.67 ± 2.65 % ID/g
  Liver uptake: 2.48 ± 1.37 % ID/g
  Lungs uptake: 0.68 ± 0.14 % ID/g
  Spleen uptake: 1.42 ± 0.78 % ID/g
  Stomach uptake: 0.51 ± 0.32 % ID/g
  Tumor uptake: 8.16 ± 3.52 % ID/g
  Tumor/Blood: 6.64 ± 3.24
  Tumor/Bone marrow: 7.57 ± 4.45
  Tumor/Kidneys: 1.37 ± 0.45
5.0 nmol/mouse, 4 h
  Blood uptake: 21.36 ± 4.88 % ID/g
  Bone marrow uptake: 1.93 ± 2.18 % ID/g
  Heart uptake: 1.50 ± 0.38 % ID/g
  Intestine uptake: 2.12 ± 1.15 % ID/g
  Kidneys uptake: 9.17 ± 2.30 % ID/g
  Liver uptake: 7.34 ± 2.16 % ID/g
  Lungs uptake: 5.93 ± 0.86 % ID/g
  Spleen uptake: 1.3 ± 0.27 % ID/g
  Stomach uptake: 1.56 ± 0.30 % ID/g
  Tumor uptake: 10.66 ± 3.68 % ID/g
  Tumor/Blood: 0.55 ± 0.20
  Tumor/Bone marrow: 15.60 ± 19.52
  Tumor/Kidneys: 1.09 ± 0.18
5.0 nmol/mouse, 24 h
  Blood uptake: 10.42 ± 1.46 % ID/g
  Bone marrow uptake: 1.8 ± 1.067 % ID/g
  Heart uptake: 0.73 ± 0.101 % ID/g
  Intestine uptake: 1.3 ± 0.65 % ID/g
  Kidneys uptake: 7.50 ± 1.68 % ID/g
  Liver uptake: 3.85 ± 0.74 % ID/g
  Lungs uptake: 2.14 ± 0.29 % ID/g
  Spleen uptake: 3.57 ± 0.10 % ID/g
  Stomach uptake: 0.8 ± 0.23 % ID/g
  Tumor uptake: 10.17 ± 0.605 % ID/g
  Tumor/Blood: 0.98 ± 0.07
  Tumor/Bone marrow: 7.69 ± 4.38
  Tumor/Kidneys: 1.41 ± 0.28
5.0 nmol/mouse, 120 h
  Blood uptake: 0.98 ± 1.01 % ID/g
  Bone marrow uptake: 0.87 ± 0.79 % ID/g
  Heart uptake: 0.57 ± 0.54 % ID/g
  Intestine uptake: 0.50 ± 0.35 % ID/g
  Kidneys uptake: 1.90 ± 0.75 % ID/g
  Liver uptake: 2.66 ± 0.28 % ID/g
  Lungs uptake: 0.81 ± 0.44 % ID/g
  Spleen uptake: 2.07 ± 1.24 % ID/g
  Stomach uptake: 0.44 ± 0.26 % ID/g
  Tumor uptake: 4.6 ± 0.85 % ID/g
10.0 nmol/mouse, 4 h
  Blood uptake: 25.24 ± 9.08 % ID/g
  Bone marrow uptake: 1.56 ± 0.67 % ID/g
  Heart uptake: 2.07 ± 0.88 % ID/g
  Intestine uptake: 2.18 ± 1.07 % ID/g
  Kidneys uptake: 5.74 ± 0.63 % ID/g
  Liver uptake: 5.35 ± 0.70 % ID/g
  Lungs uptake: 4.15 ± 0.93 % ID/g
  Spleen uptake: 1.81 ± 0.74 % ID/g
  Stomach uptake: 2.10 ± 0.97 % ID/g
  Tumor uptake: 11.75 ± 1.83 % ID/g
  Tumor/Bone marrow: 8.76 ± 3.85
10.0 nmol/mouse, 24 h
  Blood uptake: 10.26 ± 1.23 % ID/g
  Bone marrow uptake: 2.64 ± 1.31 % ID/g
  Heart uptake: 0.51 ± 0.18 % ID/g
  Intestine uptake: 0.92 ± 0.18 % ID/g
  Kidneys uptake: 5.17 ± 2.82 % ID/g
  Liver uptake: 2.36 ± 0.28 % ID/g
  Lungs uptake: 2.00 ± 0.51 % ID/g
  Spleen uptake: 2.33 ± 1.42 % ID/g
  Stomach uptake: 0.78 ± 0.29 % ID/g
  Tumor uptake: 9.32 ± 4.94 % ID/g
  Tumor/Blood: 0.89 ± 0.16
  Tumor/Bone marrow: 4.22 ± 2.0
  Tumor/Kidneys: 2.10 ± 0.95
10.0 nmol/mouse, 120 h
  Blood uptake: 0.90 ± 0.14 % ID/g
  Bone marrow uptake: 0.88 ± 0.14 % ID/g
  Heart uptake: 1.10 ± 1.33 % ID/g
  Intestine uptake: 0.65 ± 0.10 % ID/g
  Kidneys uptake: 2.71 ± 1.54 % ID/g
  Liver uptake: 4.08 ± 1.71 % ID/g
  Lungs uptake: 0.76 ± 0.13 % ID/g
  Spleen uptake: 3.85 ± 0.88 % ID/g
  Stomach uptake: 0.75 ± 0.49 % ID/g
  Tumor uptake: 4.94 ± 0.70 % ID/g
Tables 1-8, FIG. 35 (summary)
  tumor targeting / off-target concentrations: targeted the tumors, with minimal off-target concentrations
